Laboratory results: patent US9783547B2, “Water soluble 4-azapodophyllotoxin analogs” (CENTRE NATIONAL DE LA RECHERCHE SCIENTIFIQUE (CNRS), priority 2014, dated 2017)
Entries after “also recorded” stand apart in the source; their conditions may differ.

Tested on: colon 26 carcinoma
Test: Antitumor activity in colon 26 carcinoma bearing mice
Conditions: for Drug death (day of death): deaths/animals; for Note (activity / toxicity assessment): hydrochloride
[1] = 31 mg/kg i.p. days 4, 5, 11, 12, 14, 15
[2] = 50 mg/kg i.p. days 4, 5, 11, 12, 14, 15

## COc1cc(Nc2c3c(nc4cc5c(cc24)OCO5)CCCC3=O)cc(OC)c1OC.Cl [SGR307.HCl, 6,7-(Methylenedioxy)-9-(3,4,5-trimethoxyphenylamino)-3,4-dihydroacridin-1(2H)-one, hydrochloride]
[1]
  Drug death (day of death): 0/5
  Note (activity / toxicity assessment): not toxic; also recorded: highly active
[2]
  Drug death (day of death): 0/5
  Note (activity / toxicity assessment): not toxic; also recorded: highly active
80.6 mg/kg i.p. days 4, 5, 11, 12, 14, 15, days of death 7, 8, 11, 2d15
  Drug death (day of death): 5/5
